Experimental data reported in patent US20250025411A1, “READILY SOLUBLE AND THERMOSTABLE GLUCAGON FORMULATIONS AND DELIVERY FOR MINI-DOSING AND CLOSED -LOOP PROPHYLACTIC TREATMENT OF HYPOGLYCEMIA” (Massachusetts Institute of Technology, priority 2023, published 2025).

Assay: High throughput screening of water-soluble solid excipients for glucagon dissolution
Assay type: physicochemical
Settings: pH 7.4

| Substance | Fold change vs. PBS Avg. | Glucagon concentration Avg. |
| --- | --- | --- |
| Sodium Benzoate | 1.59 fold | 0.34 mg/mL |
| Sodium Bisulfite | 0.53 fold | 0.11 mg/mL |
| Sodium Chlorate | 2.19 fold | 0.47 mg/mL |
| Sodium Sulfite | 0.16 fold | 0.04 mg/mL |
| Sodium Thiosulfate | 2.80 fold |  |
